Literature values as cited in patent publication US20240041819A1, “SYSTEMS AND METHODS FOR ENHANCED FINE PARTICULATE DELIVERY IN FEED FOR ANIMALS” (SarTec Corporation, priority 2018, published 2024).

Details: in water, pH 7

monensin sodium
solubility: 4.8 µg/mL
